According to ChEMBL document CHEMBL4049456, “Identification of 4-(Aminomethyl)-6-(trifluoromethyl)-2-(phenoxy)pyridine Derivatives as Potent, Selective, and Orally Efficacious Inhibitors of the Copper-Dependent Amine Oxidase, Lysyl Oxidase-Like 2 (LOXL2)” (J Med Chem, 2017):

Legend:
[1] = target: T1, Lysyl oxidase homolog 2 (Homo sapiens) (UniProt Q9Y4K0); test: Inhibition of human LOXL2 expressed in CHO cells assessed as reduction of H2O2 production from oxidative deamination of DAP preincubated with enzyme followed by substrate addition measured every 2 mins for 1 hr by amplex red reagent-based fluorescence assay; format: cell-based
T1 sequence (whole entry): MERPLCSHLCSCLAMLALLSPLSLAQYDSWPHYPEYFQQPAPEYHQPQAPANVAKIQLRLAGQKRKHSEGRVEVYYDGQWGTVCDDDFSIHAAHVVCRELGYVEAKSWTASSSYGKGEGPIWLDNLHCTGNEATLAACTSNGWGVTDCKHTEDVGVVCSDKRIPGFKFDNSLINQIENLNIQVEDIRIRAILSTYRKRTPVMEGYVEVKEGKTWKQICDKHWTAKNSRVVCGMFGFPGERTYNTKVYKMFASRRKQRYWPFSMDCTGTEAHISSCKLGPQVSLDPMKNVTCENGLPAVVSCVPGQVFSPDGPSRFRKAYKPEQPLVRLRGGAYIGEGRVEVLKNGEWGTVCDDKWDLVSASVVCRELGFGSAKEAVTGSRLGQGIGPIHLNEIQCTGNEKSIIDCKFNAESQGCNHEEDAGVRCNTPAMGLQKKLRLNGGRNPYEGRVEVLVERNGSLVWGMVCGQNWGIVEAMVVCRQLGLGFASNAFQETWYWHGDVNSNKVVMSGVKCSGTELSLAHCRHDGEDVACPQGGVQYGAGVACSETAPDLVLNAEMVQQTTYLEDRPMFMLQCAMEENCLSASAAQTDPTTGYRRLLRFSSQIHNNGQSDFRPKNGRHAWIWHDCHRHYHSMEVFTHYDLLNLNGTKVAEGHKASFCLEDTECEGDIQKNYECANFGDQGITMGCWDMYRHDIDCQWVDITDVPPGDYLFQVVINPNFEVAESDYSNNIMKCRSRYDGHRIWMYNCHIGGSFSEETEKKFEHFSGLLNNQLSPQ
Outline: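 Serum-free concentrated conditioned media from CHO cells stably expressing human LOXL2 used as enzyme source. Test compound preincubated 2 h with enzyme, then 1,5-diaminopentane (DAP) substrate added and released H2O2 measured. IC50 values are geometric means ×/÷ geometric standard deviation from at least 3 separate experiments.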

[2] = target: T1, Lysyl oxidase homolog 2 (Homo sapiens); test: Irreversible inhibition of human LOXL2 assessed as reduction of H2O2 production from oxidative deamination of DAP at 1000 times IC50 preincubated for 2 hrs followed by compound washout and subsequent incubation for 2 hrs prior to substrate addition measured every 2 mins for 40 mins by amplex red reagent-based fluorescence assay relative to control
Outline: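 Wells were washed repeatedly with PBS and equilibrated for 2 h. Recovered activity was then compared with nonwashed controls.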

[3] = target: T1, Lysyl oxidase homolog 2 (Homo sapiens); test: Irreversible inhibition of human LOXL2 assessed as catalytic activity preincubated for 2 hrs followed by substrate addition measured every 2 mins for 1 hr by amplex red reagent-based fluorescence assay relative to control; parameters: concentration or dose not given beside the values

`N#CCCN` was tested, and the inhibition [1] was “Tde”, the inhibition [2] was 88% and the inhibition [3] was 98%.
